Apparent affinities of Ab-14 variants for a coronavirus HR2 peptide

The measurements come from Li et al. 2023 (doi:10.1038/s41467-023-39022-2) through the FLAb antibody collection.

The target is the same throughout: PDVDLGDISGINAS, from the HR2 region of SARS-CoV-2 spike.

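Phage display of a naive human antibody library on the peptide gave the parent. The variants were designed computationally from a first round of random CDR variants and then made and measured. Group labels follow the data file (En: ensemble of fine-tuned language models; GP: Gaussian process model; HC: hill climbing; Gen: genetic algorithm; Gibbs: Gibbs sampling; a sequence that several methods proposed may carry one label only). The assay is AlphaSeq: two haploid yeast populations carry antibody and antigen on their surface. Pairs that bind mate more often; barcode pairs of the diploids are counted by sequencing. Read counts were normalised to the haploid input and turned into Kd by a linear fit to BCL2-family pairs of known affinity, for each replicate. Mating was done six times.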

Ab-14 is the parent antibody, in scFv form: VH, then three GGGGS repeats, then VL. The heavy chain is unchanged in all variants.
VH: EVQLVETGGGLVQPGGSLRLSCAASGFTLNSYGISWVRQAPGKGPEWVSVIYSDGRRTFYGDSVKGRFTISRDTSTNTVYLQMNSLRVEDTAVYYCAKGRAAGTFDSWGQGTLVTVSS
VL: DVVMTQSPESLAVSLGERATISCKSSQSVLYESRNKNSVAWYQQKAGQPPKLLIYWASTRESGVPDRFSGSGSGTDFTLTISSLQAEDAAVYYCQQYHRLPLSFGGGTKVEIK

Variants are written as CDR1, CDR2 and CDR3 of the light chain (limits as in the source). Parent: KSSQSVLYESRNKNSVA, WASTRES, QQYHRLPLS.
Variants here have more than six changes.
Values are apparent Kd, the geometric mean of the replicates that gave a signal; lower means stronger binding.
A pair that was not seen in any replicate is written "nd"; this usually means weak binding, but a binder can also be missed.
Entries are sorted by rising average, undetected variants last.

| CDR-L1 | CDR-L2 | CDR-L3 | group | Kd | detected |
|---|---|---|---|---|---|
| KLQQGVLMESRNKNSVA | NAGQREE | QQYHRLPLS | GP_Gibbs | 310 pM | 6 of 6 |
| TISQSHQMESHNKNSVA | DLNVRGS | QQYDRLPLS | En_HC | 390 pM | 6 of 6 |
| KLSQSFLYESRNSNNVA | MASTRMV | QQYHRLPLS | GP_Gibbs | 630 pM | 6 of 6 |
| VMFGGLNFGNIEHQAIA | NVDVREK | QQYHRLPLQ | En_Gibbs | 640 pM | 6 of 6 |
| KLSQSFLYESRNKMSVA | NADTRLE | QQYHRLPLS | GP_Gibbs | 730 pM | 6 of 6 |
| KIGGVTNGLSRNKNSVA | EQSTRES | QQYNRLPLS | En_HC | 850 pM | 6 of 6 |
| KISESWLYEPRNSNSVA | NASTRQM | QQYHRLPLS | GP_Gibbs | 920 pM | 6 of 6 |
| KISQSVLYEQRAQNSVA | EASTRCD | QQYHRLPLS | GP_Gibbs | 1.0 nM | 6 of 6 |
| KLSTSVMLESRNVNSVA | SASQREE | QQYHRLPLS | GP_Gibbs | 1.1 nM | 6 of 6 |
| MISDLTMYGSRNVNSVA | DLSTRGN | QQYDRLPLS | En_HC | 1.4 nM | 6 of 6 |
| KLMQSVCMESRNKNSVA | NASKREE | QQYHRLPLS | GP_Gibbs | 1.4 nM | 6 of 6 |
| KLMQSVMGWMRNKNSVA | NASTRES | QQYHRLPLS | GP_Gibbs | 1.5 nM | 6 of 6 |
| KLSISGMHESIDKKSIA | ERSTREN | QQYHRLPLS | En_HC | 1.5 nM | 6 of 6 |
| KIQSHLSQSFASWNNIA | DRVQSAE | QQYNRLPLV | En_Gibbs | 1.6 nM | 6 of 6 |
| KLVESELYESRNSNSVA | NASYRES | QQYHRLPLS | GP_Gibbs | 1.7 nM | 6 of 6 |
| KLEQSMLYESRNSNSVA | NASTRMD | QQYHRLPLM | GP_Gibbs | 2.1 nM | 6 of 6 |
| KCSLSVEQLSRQKNSVA | HASTRES | QQYHRLPLS | GP_Gibbs | 2.1 nM | 6 of 6 |
| MLGDTVMQGSYSRNSVA | QESTRAE | QQYHHLPLS | En_HC | 2.3 nM | 6 of 6 |
| MISNVMNTLTRQGNNVA | DLTEREK | QQYFRLPLS | En_Gen | 2.4 nM | 6 of 6 |
| KFSQQNLYEDRMKNPVA | NASQREQ | QQYHRLPLS | GP_Gibbs | 2.4 nM | 6 of 6 |
| HISIKLPGNWYMMDSVA | HSERRAE | QQYARLPLG | En_Gibbs | 2.5 nM | 6 of 6 |
| KLWGRCMDGELINYNVA | NGRLAVQ | QQYDRLPLS | En_Gibbs | 2.7 nM | 6 of 6 |
| QGDMFENYQGNQNASIA | GTTNRLT | QQYQKLPLS | En_Gibbs | 2.9 nM | 6 of 6 |
| TISQMTSLFSQSINNVA | EVSTREK | QQYDRLPLS | En_Gen | 3.0 nM | 6 of 6 |
| KLYASTMLESHDKNSIA | DLTTRGN | QQYHRLPLS | En_HC | 3.4 nM | 6 of 6 |
| KLQQGMDYESRNDASVA | AASTRES | QQYHRLPLS | GP_Gibbs | 3.8 nM | 6 of 6 |
| NISHFMDTTAKHNNNVA | EMTMREN | QQYHHLPLS | En_Gen | 3.8 nM | 6 of 6 |
| KFMYSVLYEERNQNSVA | NASQREQ | QQYHRLPLS | GP_Gibbs | 3.8 nM | 6 of 6 |
| KMSGEDMMLSRNWNSVA | QASTREQ | QQYHRLPLS | GP_Gibbs | 4.1 nM | 6 of 6 |
| KISQMSTIESITHNSIA | QTSTRES | QQYDRLPLS | En_HC | 4.2 nM | 6 of 6 |
| KLSISHQVESISKSNVA | EMVTRES | QQYDRLPLS | En_HC | 4.3 nM | 6 of 6 |
| SMTGGLLDGNREPSNIA | AQDIGTD | QQYHRLPFI | En_Gibbs | 4.5 nM | 6 of 6 |
| KLGQVTENMQLNRNSVA | HMSTRED | QQYHRLPLS | En_HC | 4.5 nM | 6 of 6 |
| KIQLGLSRYNGDYSSIA | NETQKGD | QQYFQLPLG | En_Gibbs | 4.8 nM | 6 of 6 |
| MVSMNIGGEYRNRDNVA | HASNREN | QCYDRLPLS | En_Gen | 5.1 nM | 6 of 6 |
| TIGQMFNGESRNRNSVA | QAQTRES | QSYDRLPLS | En_HC | 6.3 nM | 6 of 6 |
| TIGVTLMQGIRNRSNVA | EVSERLN | QQYDRLPLI | En_Gen | 6.4 nM | 6 of 6 |
| KFGQMVLTGMYVSNSVA | QSSTREN | QQYHRLPLS | En_HC | 6.8 nM | 6 of 6 |
| QFSNTNMQGNAMWHNVA | EATYAEE | QQYARLPLQ | En_Gibbs | 7.7 nM | 6 of 6 |
| HINDMLFGDHKIAHSIA | NTGVTSR | QQYSRLPLI | En_Gibbs | 8.4 nM | 6 of 6 |
| TISQMMQLFSQTINNVA | EVSTREQ | QQYDRLPLM | En_Gen | 9.4 nM | 5 of 6 |
| QLSVFELQGTGWAQSIA | QADHRTE | QQFARLPLV | En_Gibbs | 11 nM | 6 of 6 |
| HLHTVNYTQAIGTNSIA | DANLHVT | QQYFRLPIM | En_Gibbs | 13 nM | 6 of 6 |
| HITYGMQVAGRHSKSIA | QAEERAS | QQYDRLPLI | En_Gen | 13 nM | 6 of 6 |
| RLSQTHGGYEKMMNNIA | QGSQKQF | QSYDRLPLS | En_Gibbs | 22 nM | 5 of 6 |
| MIAQGLRGQGRNKNSVA | NAQTRES | QHYHRLPLS | En_HC | 22 nM | 6 of 6 |
| NLSDGEMYENATRSNIA | NTSMRDF | QQYNRLPLD | En_Gibbs | 27 nM | 6 of 6 |
| MLDQMDSQMGVNTNNIA | GVVESRI | QQYHRLPLS | En_Gibbs | 34 nM | 4 of 6 |
| SFDLTKSGMENERYSIA | ERSTLMT | QDYHRLPLA | En_Gibbs | 40 nM | 6 of 6 |
| HITYGMMVGGRHSKSIA | QAETRAK | QQYDRLPLI | En_Gen | 43 nM | 2 of 6 |
| MMSQVTGMELRQQNNVA | QTTTREE | QQYDRLPLI | En_Gen | 44 nM | 6 of 6 |
| TMLYQPETINGRVNNVA | NGSEAVE | QQYDRLPFV | En_Gibbs | 45 nM | 6 of 6 |
| KLMNSLDAFHQWEDNIA | ETEIKVA | QQYYHLPLT | En_Gibbs | 49 nM | 6 of 6 |
| HMSQVTMYGYWYKNSVA | QTSTREE | QQYDRLPLS | En_HC | 51 nM | 6 of 6 |
| HISQSVTMTSRNKNSVA | ENSTREA | QQYDRLPLS | En_HC | 53 nM | 6 of 6 |
| MISQLFMYGSRNYNSIA | QASTRES | QQYDRLPLI | En_HC | 110 nM | 6 of 6 |
| KIMQSLNYEQFNVSNVA | GQETREY | QSYHRLPLS | En_HC | 150 nM | 6 of 6 |
| TITGFQNMSTQGNWSIA | QAEQKVH | QQYDRLPLA | En_Gibbs | 250 nM | 3 of 6 |
| KIGMTLNQLMHQKNNVA | DLVMREM | QQYHRLPLS | En_Gen | 260 nM | 4 of 6 |
| QLSSIMGHLSVEKNNVA | EMETREN | QQYDRLPLS | En_Gen | 270 nM | 2 of 6 |
| KITFQGMLSDAHQYSIA | QTNVYSQ | QQYDRLPLD | En_Gibbs | 370 nM | 1 of 6 |
| KLSQVTHSESRNKNSIA | EMVSREV | QQYDRLPLS | En_HC | 930 nM | 3 of 6 |
| MLSDLVKMGSRNHNSVA | DNSTRGS | QQYDRLPLS | En_HC | 43 µM | 1 of 6 |
| RVSVFMLTDENVWYSIA | NSAATRT | QQYQRLPLS | En_Gibbs | nd | 0 of 6 |
| MLEWLEINGQSVGNSIA | ANVQEQE | QQYFRLPLT | En_Gibbs | nd | 0 of 6 |
| TLSQMSGVESVKHNNVA | ENSTREK | QQYDRLPLS | En_Gen | nd | 0 of 6 |

Extract of 5 entries:

CDR-L1	CDR-L2	CDR-L3	group	Kd	detected
NISHFMDTTAKHNNNVA	EMTMREN	QQYHHLPLS	En_Gen	3.8 nM	6 of 6
KLQQGVLMESRNKNSVA	NAGQREE	QQYHRLPLS	GP_Gibbs	310 pM	6 of 6
KLMQSVMGWMRNKNSVA	NASTRES	QQYHRLPLS	GP_Gibbs	1.5 nM	6 of 6
KIGMTLNQLMHQKNNVA	DLVMREM	QQYHRLPLS	En_Gen	260 nM	4 of 6
MLEWLEINGQSVGNSIA	ANVQEQE	QQYFRLPLT	En_Gibbs	nd	0 of 6

The parent sequence was in this pool as ten entries: three were never detected, three once, and four in most replicates, with averages from 2.2 nM to 240 nM.
The authors averaged sequences with at least three values out of six and counted those with two or fewer as poor binders.
A sequence measured in both rounds can read differently, since the two assays cover different ranges.
As a blank, each scFv also met three strains without target: over all light chain designs, 4% of these pairings were detected, typically at 430 nM and seldom below 38 nM.